The values that follow are results of earlier work, collected in patent US11293870B2, “Vital stain” (Mie University, priority 2013, dated 2022).

The conditions of this data set: Mouse, Intra-venous; cited from earlier work.

Usually LD50 stands for the dose expected to kill half of the subjects tested. As for `CC1(C)C(/C=C/C=C/C=C/C=C2\N(CCCCS(=O)(=O)O)c3ccc4ccccc4c3C2(C)C)=[N+](CCCCS(=O)(=O)[O-])c2ccc3ccccc3c21` [Indocyanine green, reference compound], the LD50 is recorded as 60 mg/kg.
